# Reference: US10456407B2, “Combination therapy for treating cancer” (Epizyme, Inc., priority 2015, dated 2019)
# Columns and labels:
# SU-DHL10 cells = assay: RT2 Glucocorticoid signaling PCR array, SU-DHL10 (SUDHL10) cell line (Table 4d); assay type: cell-based; settings: SUDHL10, 4 days, vs DMSO
# Text: (§1) Expression levels of (A). Sestrin; (B). TNF and (C) GILZ normalized to DMSO controls for each cell line with the indicated single agent or combination.
# OCI-Ly19 cells = assay: RT2 Glucocorticoid signaling PCR array, OCI-LY19 (Table 4a, printed OCT) cell line; assay type: cell-based; settings: compared to DMSO
# Text: as §1
structure (smiles),measurement,setting,value
"C[C@]12C=CC(=O)C=C1CC[C@@H]1[C@@H]2[C@@H](O)C[C@@]2(C)[C@H]1CC[C@]2(O)C(=O)CO [Prednisolone, prednisolone]",ADARB1 Fold Change,SU-DHL10 cells,0.213
same,AFF1 Fold Change,SU-DHL10 cells,1.076
same,AK2 Fold Change,SU-DHL10 cells,1.270
same,AMPD3 Fold Change,SU-DHL10 cells,1.254
same,ANGPTL4 Fold Change,SU-DHL10 cells,1.075
same,ANXA4 Fold Change,SU-DHL10 cells,1.001
same,ARIDS8 Fold Change,SU-DHL10 cells,0.329
same,ASPH Fold Change,SU-DHL10 cells,0.889
same,ATF4 Fold Change,SU-DHL10 cells,0.337
same,BCL6 Fold Change,SU-DHL10 cells,0.477
same,CEBPA Fold Change,SU-DHL10 cells,0.581
same,CEBPB Fold Change,SU-DHL10 cells,0.186
same,CREB1 Fold Change,SU-DHL10 cells,0.981
same,CREB3 Fold Change,SU-DHL10 cells,1.070
same,CREB3L4 Fold Change,SU-DHL10 cells,0.460
same,CYB561 Fold Change,SU-DHL10 cells,0.893
same,DDIT4 Fold Change,SU-DHL10 cells,2.317
same,DUSP1 Fold Change,SU-DHL10 cells,1.646
same,EHD3 Fold Change,SU-DHL10 cells,1.207
same,FK8PS Fold Change,SU-DHL10 cells,3.029
same,FOSL2 Fold Change,SU-DHL10 cells,2.850
same,GDPD1 Fold Change,SU-DHL10 cells,1.916
same,GOT1 Fold Change,SU-DHL10 cells,0.582
same,H6PD Fold Change,SU-DHL10 cells,0.557
same,HNRPLL Fold Change,SU-DHL10 cells,0.711
same,KLF9 Fold Change,SU-DHL10 cells,3.742
same,KLF13 Fold Change,SU-DHL10 cells,4.566
same,LOX Fold Change,SU-DHL10 cells,1.419
same,MT2A Fold Change,SU-DHL10 cells,0.280
same,NFKBIA Fold Change,SU-DHL10 cells,0.953
same,NR3C1 Fold Change,SU-DHL10 cells,8.837
same,PDCD7 Fold Change,SU-DHL10 cells,0.743
same,PDP1 Fold Change,SU-DHL10 cells,0.701
same,PER1 Fold Change,SU-DHL10 cells,1.597
same,PER2 Fold Change,SU-DHL10 cells,1.152
same,PIK3R1 Fold Change,SU-DHL10 cells,1.028
same,PLEKHF1 Fold Change,SU-DHL10 cells,1.254
same,POU2F1 Fold Change,SU-DHL10 cells,1.042
same,POU2F2 Fold Change,SU-DHL10 cells,1.152
same,RA5A3 Fold Change,SU-DHL10 cells,0.966
same,RGS2 Fold Change,SU-DHL10 cells,0.387
same,RHOB Fold Change,SU-DHL10 cells,0.897
same,SESN1 Fold Change,SU-DHL10 cells,10.652
same,SGK1 Fold Change,SU-DHL10 cells,0.509
same,SLC10A6 Fold Change,SU-DHL10 cells,2.918
same,SLC19A2 Fold Change,SU-DHL10 cells,0.309
same,SLC22A5 Fold Change,SU-DHL10 cells,0.264
same,SNTA1 Fold Change,SU-DHL10 cells,1.047
same,SPHK1 Fold Change,SU-DHL10 cells,1.213
same,SPSB1 Fold Change,SU-DHL10 cells,1.546
same,STAT5A Fold Change,SU-DHL10 cells,0.768
same,STAT5B Fold Change,SU-DHL10 cells,0.608
same,TBL1XR1 Fold Change,SU-DHL10 cells,0.930
same,TNF Fold Change,SU-DHL10 cells,0.858
same,TNFAIP3 Fold Change,SU-DHL10 cells,0.518
same,TSC22D3 Fold Change,SU-DHL10 cells,2.846
same,USP2 Fold Change,SU-DHL10 cells,1.224
same,USPS4 Fold Change,SU-DHL10 cells,0.972
same,VDR Fold Change,SU-DHL10 cells,1.185
same,VLDLR Fold Change,SU-DHL10 cells,0.041
same,ZFP36 Fold Change,SU-DHL10 cells,1.338
same,ZHX3 Fold Change,SU-DHL10 cells,0.981
same,ZNF281 Fold Change,SU-DHL10 cells,1.380
same,"Fold Change, ADARB1",OCI-Ly19 cells; gene ADARB1,1.035
same,"Fold Change, AFF1",OCI-Ly19 cells; gene AFF1,1.235
same,"Fold Change, AK2",OCI-Ly19 cells; gene AK2,1.045
same,"Fold Change, AMPD3",OCI-Ly19 cells; gene AMPD3,1.078
same,"Fold Change, ANGPTL4",OCI-Ly19 cells; gene ANGPTL4,1.686
same,"Fold Change, ANXA4",OCI-Ly19 cells; gene ANXA4,0.877
same,"Fold Change, ARID68",OCI-Ly19 cells; gene ARID68,1.056
same,"Fold Change, ASPH",OCI-Ly19 cells; gene ASPH,0.787
same,"Fold Change, ATF4",OCI-Ly19 cells; gene ATF4,0.729
same,"Fold Change, BCL6",OCI-Ly19 cells; gene BCL6,0.847
same,"Fold Change, CEBPA",OCI-Ly19 cells; gene CEBPA,0.979
same,"Fold Change, CEBPB",OCI-Ly19 cells; gene CEBPB,0.622
same,Fold Change COL4A2,OCI-Ly19 cells; gene COL4A2,0.330
same,"Fold Change, CREB1",OCI-Ly19 cells; gene CREB1,0.959
same,"Fold Change, CREB3",OCI-Ly19 cells; gene CREB3,1.114
same,"Fold Change, CREB3L4",OCI-Ly19 cells; gene CREB3L4,0.900
same,Fold Change CTGF,OCI-Ly19 cells; gene CTGF,2.114
same,"Fold Change, DDIT4",OCI-Ly19 cells; gene DDIT4,2.255
same,"Fold Change, DUSP1",OCI-Ly19 cells; gene DUSP1,0.893
same,"Fold Change, EHD3",OCI-Ly19 cells; gene EHD3,1.709
same,"Fold Change, FK8PS",OCI-Ly19 cells; gene FK8PS,1.831
same,"Fold Change, FOSL2",OCI-Ly19 cells; gene FOSL2,1.395
same,"Fold Change, GDPD1",OCI-Ly19 cells; gene GDPD1,0.914
same,"Fold Change, GHRHR",OCI-Ly19 cells; gene GHRHR,6.075
same,Fold Change GLUL,OCI-Ly19 cells; gene GLUL,1.064
same,"Fold Change, GOT1",OCI-Ly19 cells; gene GOT1,0.937
same,"Fold Change, H6PD",OCI-Ly19 cells; gene H6PD,1.398
same,"Fold Change, HNRPLL",OCI-Ly19 cells; gene HNRPLL,1.114
same,"Fold Change, KLF9",OCI-Ly19 cells; gene KLF9,2.971
same,"Fold Change, KLF13",OCI-Ly19 cells; gene KLF13,1.053
same,"Fold Change, LOX",OCI-Ly19 cells; gene LOX,2.264
same,Fold Change MERTK,OCI-Ly19 cells; gene MERTK,1.212
same,Fold Change MTZA,OCI-Ly19 cells; gene MTZA,1.124
same,"Fold Change, NFKBIA",OCI-Ly19 cells; gene NFKBIA,0.971
same,"Fold Change, NR3C1",OCI-Ly19 cells; gene NR3C1,1.219
same,Fold Change PDCC7,OCI-Ly19 cells; gene PDCC7,0.042
same,Fold Change PDGFRB,OCI-Ly19 cells; gene PDGFRB,4.731
same,"Fold Change, PDP1",OCI-Ly19 cells; gene PDP1,1.340
same,"Fold Change, PER1",OCI-Ly19 cells; gene PER1,0.833
same,"Fold Change, PIK3R1",OCI-Ly19 cells; gene PIK3R1,1.086
same,"Fold Change, PLEKHF1",OCI-Ly19 cells; gene PLEKHF1,0.908
same,"Fold Change, POU2F1",OCI-Ly19 cells; gene POU2F1,0.967
same,"Fold Change, POU2F2",OCI-Ly19 cells; gene POU2F2,1.489
same,"Fold Change, RASA3",OCI-Ly19 cells; gene RASA3,0.994
same,"Fold Change, RGS2",OCI-Ly19 cells; gene RGS2,0.763
same,"Fold Change, RHOB",OCI-Ly19 cells; gene RHOB,3.394
same,"Fold Change, SESN1",OCI-Ly19 cells; gene SESN1,0.972
same,"Fold Change, SGK1",OCI-Ly19 cells; gene SGK1,2.225
same,"Fold Change, SLC10A6",OCI-Ly19 cells; gene SLC10A6,1.291
same,"Fold Change, SLC19A2",OCI-Ly19 cells; gene SLC19A2,0.753
same,"Fold Change, SLC22A5",OCI-Ly19 cells; gene SLC22A5,0.849
same,"Fold Change, SNTA1",OCI-Ly19 cells; gene SNTA1,0.921
same,"Fold Change, SPHK1",OCI-Ly19 cells; gene SPHK1,0.985
same,"Fold Change, SPSB1",OCI-Ly19 cells; gene SPSB1,0.765
same,"Fold Change, STAT5A",OCI-Ly19 cells; gene STAT5A,1.045
same,"Fold Change, STAT5B",OCI-Ly19 cells; gene STAT5B,0.796
same,"Fold Change, TBL1XR1",OCI-Ly19 cells; gene TBL1XR1,1.176
same,"Fold Change, TNF",OCI-Ly19 cells; gene TNF,1.709
same,"Fold Change, TNFAIP3",OCI-Ly19 cells; gene TNFAIP3,0.841
same,"Fold Change, TSC22D3",OCI-Ly19 cells; gene TSC22D3,3.238
same,"Fold Change, USP2",OCI-Ly19 cells; gene USP2,1.500
same,"Fold Change, USPS4",OCI-Ly19 cells; gene USPS4,0.820
same,"Fold Change, VDR",OCI-Ly19 cells; gene VDR,1.659
same,"Fold Change, VLDLR",OCI-Ly19 cells; gene VLDLR,0.945
same,"Fold Change, ZHX3",OCI-Ly19 cells; gene ZHX3,1.659
same,"Fold Change, ZNF281",OCI-Ly19 cells; gene ZNF281,0.547
